Assays:
MC2-R = molecular target: T1, MC2-R (Mus musculus, UniProt Q64326); assay: Competitive binding assay with 125I-NDP-MSH, MC2 receptors
T1 construct: Y1 cells were used as the source of MC2 receptors; endogenous in cells; host or cells: Y1 cells

The chains behind the UniProt entries cited, without tags or fusion partners. Where a name states a change or a piece, a line headed by the entry shows the natural chain unless it says otherwise.
UniProt Q64326: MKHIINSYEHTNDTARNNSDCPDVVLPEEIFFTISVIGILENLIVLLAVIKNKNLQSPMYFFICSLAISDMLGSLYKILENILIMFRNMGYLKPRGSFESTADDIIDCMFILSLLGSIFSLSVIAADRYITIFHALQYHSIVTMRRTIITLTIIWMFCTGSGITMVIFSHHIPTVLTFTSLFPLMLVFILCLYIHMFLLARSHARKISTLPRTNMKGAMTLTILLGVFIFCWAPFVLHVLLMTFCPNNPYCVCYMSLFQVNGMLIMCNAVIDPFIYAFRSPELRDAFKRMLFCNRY
UniProt P32245, whole entry: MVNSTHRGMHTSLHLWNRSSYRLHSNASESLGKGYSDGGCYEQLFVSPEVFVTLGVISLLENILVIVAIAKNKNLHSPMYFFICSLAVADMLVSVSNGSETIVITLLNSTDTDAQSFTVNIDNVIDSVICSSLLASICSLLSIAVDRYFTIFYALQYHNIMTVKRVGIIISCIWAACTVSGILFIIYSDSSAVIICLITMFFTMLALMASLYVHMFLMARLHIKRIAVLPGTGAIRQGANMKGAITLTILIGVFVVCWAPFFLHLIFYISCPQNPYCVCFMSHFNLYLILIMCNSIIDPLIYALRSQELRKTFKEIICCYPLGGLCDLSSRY

Sprague Dawley rats = assay: Induction of penile erection by intravenous injection; conditions: male, rat, in vivo, 0.5 h
MC4-R = MC4-R (Homo sapiens, UniProt P32245); assay: Agonist activity by cAMP detection in HEK 293 cells; assay type: cell-based; set-up: expressed in transfected cells; host or cells: HEK 293 cells, stably transfected; conditions: test compound 1 × 10^−7M

Row | Compound | Ki (MC2-R) [nM] | Therapeutic window (desired therapeutic effect to observed adverse effects) (Sprague Dawley rats) | cAMP CONCENTRATION (MC4-R) [pmol/mL]
1 | CCCCC(NC(C)=O)C(=O)NC1CC(=O)NCCCCC(C(=O)O)NC(=O)C(Cc2c[nH]c3ccccc23)NC(=O)C(CCCNC(=N)N)NC(=O)C(Cc2ccccc2)NC(=O)C(Cc2c[nH]cn2)NC1=O [Compound 1, Ac-Nle-cyclo(-Asp-His-D-Phe-Arg-Trp-Lys)-OH] | > 1000 | > 1,000 fold | –
2 | α-MSH | – | – | 107.7
